# Values quoted from earlier work as cited in patent publication US20230201290A1, “TGF-BETA INHIBITION, AGENTS AND COMPOSITION THEREFOR” (GMP BIOTECHNOLOGY LIMITED, priority 2020, published 2023).
# Assays:
# vivax malaria = conditions: 1975: artemisinin tablets total 3 g; chloroquine total 1.5 g base; cited from earlier work
# falciparum malaria = conditions: 1975, 3-day regimens: artemisinin tablets 2.5 g, chloroquine 1.5 g base; cited from earlier work
compound,measurement,setting,value
CCN(CC)CCCC(C)Nc1ccnc2cc(Cl)ccc12 (centres unmarked) [chloroquine],parasite clearance time,vivax malaria,55.9 ± 16.6 h
same,Average asexual parasite clearance time,falciparum malaria,65.7 ± 29.9 h
